Here are results for two molecules from patent US11787785B2 (NOVARTIS AG, priority 2021, dated 2023).

Protein sequences, listed by entry. Tags and fused reporters are not part of them.
UniProt O95785, whole entry: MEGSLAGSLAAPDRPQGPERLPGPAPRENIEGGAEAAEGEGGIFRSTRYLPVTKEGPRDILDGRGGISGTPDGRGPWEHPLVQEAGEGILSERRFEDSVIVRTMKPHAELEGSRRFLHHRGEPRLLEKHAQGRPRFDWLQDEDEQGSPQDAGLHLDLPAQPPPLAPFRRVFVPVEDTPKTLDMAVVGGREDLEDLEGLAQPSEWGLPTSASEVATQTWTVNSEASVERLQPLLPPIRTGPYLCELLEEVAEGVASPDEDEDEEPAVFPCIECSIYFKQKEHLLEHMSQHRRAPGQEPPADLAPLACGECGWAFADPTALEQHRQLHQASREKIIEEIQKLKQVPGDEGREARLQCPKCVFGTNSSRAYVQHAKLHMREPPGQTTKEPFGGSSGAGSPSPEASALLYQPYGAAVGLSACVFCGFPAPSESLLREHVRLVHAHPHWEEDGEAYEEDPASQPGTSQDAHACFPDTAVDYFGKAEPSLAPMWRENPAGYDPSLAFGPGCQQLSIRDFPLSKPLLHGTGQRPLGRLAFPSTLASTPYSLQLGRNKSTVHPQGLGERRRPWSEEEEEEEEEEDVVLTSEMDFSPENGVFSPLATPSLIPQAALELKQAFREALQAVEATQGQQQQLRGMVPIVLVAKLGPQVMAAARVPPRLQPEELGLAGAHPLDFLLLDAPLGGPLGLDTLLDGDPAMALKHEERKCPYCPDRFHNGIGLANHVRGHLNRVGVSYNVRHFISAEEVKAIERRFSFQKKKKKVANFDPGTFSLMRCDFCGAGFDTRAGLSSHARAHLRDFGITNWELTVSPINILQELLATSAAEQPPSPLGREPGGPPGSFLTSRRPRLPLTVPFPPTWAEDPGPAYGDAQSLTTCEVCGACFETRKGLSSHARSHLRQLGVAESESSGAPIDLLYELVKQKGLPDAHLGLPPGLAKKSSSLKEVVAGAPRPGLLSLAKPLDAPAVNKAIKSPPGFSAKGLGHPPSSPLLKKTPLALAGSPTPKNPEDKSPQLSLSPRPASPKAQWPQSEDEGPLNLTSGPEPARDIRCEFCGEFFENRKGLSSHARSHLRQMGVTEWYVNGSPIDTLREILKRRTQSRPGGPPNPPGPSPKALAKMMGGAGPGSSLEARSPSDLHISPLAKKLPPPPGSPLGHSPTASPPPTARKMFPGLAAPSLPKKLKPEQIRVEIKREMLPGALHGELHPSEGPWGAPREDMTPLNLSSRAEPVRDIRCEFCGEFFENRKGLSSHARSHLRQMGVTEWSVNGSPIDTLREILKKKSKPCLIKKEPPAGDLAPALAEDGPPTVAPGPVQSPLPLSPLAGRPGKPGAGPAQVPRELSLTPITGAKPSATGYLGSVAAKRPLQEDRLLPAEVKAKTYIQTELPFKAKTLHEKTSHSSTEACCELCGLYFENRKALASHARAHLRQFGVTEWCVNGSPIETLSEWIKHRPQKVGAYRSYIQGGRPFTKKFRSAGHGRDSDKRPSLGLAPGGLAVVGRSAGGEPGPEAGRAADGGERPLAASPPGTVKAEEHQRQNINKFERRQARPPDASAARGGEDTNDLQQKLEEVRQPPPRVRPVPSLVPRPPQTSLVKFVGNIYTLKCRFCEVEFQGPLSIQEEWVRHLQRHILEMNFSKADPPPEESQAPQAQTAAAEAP
UniProt Q96SW2, whole entry: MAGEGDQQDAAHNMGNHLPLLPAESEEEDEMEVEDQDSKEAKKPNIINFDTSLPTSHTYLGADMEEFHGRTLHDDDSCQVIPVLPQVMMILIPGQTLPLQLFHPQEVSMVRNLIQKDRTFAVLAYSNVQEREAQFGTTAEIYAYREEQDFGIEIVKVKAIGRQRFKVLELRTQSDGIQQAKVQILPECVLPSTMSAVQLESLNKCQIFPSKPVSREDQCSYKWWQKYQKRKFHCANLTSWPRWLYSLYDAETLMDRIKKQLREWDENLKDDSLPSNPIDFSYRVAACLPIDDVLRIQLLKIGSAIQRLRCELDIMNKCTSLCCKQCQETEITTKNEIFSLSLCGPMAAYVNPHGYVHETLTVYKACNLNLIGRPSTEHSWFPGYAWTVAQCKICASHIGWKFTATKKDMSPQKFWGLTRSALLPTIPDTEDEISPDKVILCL
UniProt Q16531, whole entry partner: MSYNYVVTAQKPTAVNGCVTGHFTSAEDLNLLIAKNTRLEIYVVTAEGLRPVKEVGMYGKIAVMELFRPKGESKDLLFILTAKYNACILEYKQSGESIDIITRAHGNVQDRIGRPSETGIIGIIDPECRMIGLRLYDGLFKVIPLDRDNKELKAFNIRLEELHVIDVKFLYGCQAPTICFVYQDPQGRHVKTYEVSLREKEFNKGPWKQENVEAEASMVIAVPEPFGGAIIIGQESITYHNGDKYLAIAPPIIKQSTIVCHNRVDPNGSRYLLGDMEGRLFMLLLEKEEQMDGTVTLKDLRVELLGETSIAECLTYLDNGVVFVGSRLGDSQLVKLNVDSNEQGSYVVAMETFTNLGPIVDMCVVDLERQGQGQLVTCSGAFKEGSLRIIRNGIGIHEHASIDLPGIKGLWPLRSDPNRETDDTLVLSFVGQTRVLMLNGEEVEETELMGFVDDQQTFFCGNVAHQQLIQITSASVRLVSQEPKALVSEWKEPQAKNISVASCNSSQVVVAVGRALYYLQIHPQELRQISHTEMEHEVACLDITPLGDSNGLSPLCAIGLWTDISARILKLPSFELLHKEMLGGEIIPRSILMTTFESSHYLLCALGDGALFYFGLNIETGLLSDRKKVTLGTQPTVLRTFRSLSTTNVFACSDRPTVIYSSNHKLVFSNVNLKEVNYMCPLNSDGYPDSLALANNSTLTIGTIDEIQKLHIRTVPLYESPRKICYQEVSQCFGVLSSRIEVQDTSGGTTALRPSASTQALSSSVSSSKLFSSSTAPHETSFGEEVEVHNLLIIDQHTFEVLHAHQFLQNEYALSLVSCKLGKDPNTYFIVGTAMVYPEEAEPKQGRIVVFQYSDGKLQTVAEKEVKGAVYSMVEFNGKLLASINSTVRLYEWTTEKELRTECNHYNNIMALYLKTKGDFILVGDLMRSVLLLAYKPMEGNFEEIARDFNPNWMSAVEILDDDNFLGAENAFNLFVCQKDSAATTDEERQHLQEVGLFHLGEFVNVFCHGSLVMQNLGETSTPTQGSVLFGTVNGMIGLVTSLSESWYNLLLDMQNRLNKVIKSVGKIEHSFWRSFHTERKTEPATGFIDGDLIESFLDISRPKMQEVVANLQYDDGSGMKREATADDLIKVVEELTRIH

Broadly, the AC50 is the concentration at which the activity in the assay is half-maximal.

The target of the test is WIZ protein (HiBit-WIZ fusion protein) (Homo sapiens, UniProt O95785+Q96SW2). Description: Quantification of WIZ protein levels in HiBit tag fusion protein assay (WIZ HiBit assay in 293T cells). In kind it is cell-based. The note with it: for % degradation of WIZ (100 − Amax): at 25 uM; for % degradation of WIZ (100 − Amax) / WIZ Amax: 293T cells; for WIZ Amax: DMSO-normalized, curve-fitted percentage of WIZ-HiBit remaining at 25 uM; for AC50: read-out: WIZ AC50, WIZ HiBit assay in 293T cells, 10-point, 5-fold dose response, highest concentration 25 μM, about 18 hours. For orientation: The HiBiT peptide binds its large partner to form an active luciferase.

Regarding `CC(C)S(=O)(=O)N1CC[C@@H](Cc2ccn3ncc(N4CCC(=O)NC4=O)c3c2)C[C@@H]1C`, the “% degradation of WIZ (100 − Amax)” value amounted to 82%, the “WIZ Amax” value was found to be 18% and the half-maximal activity concentration (AC50) worked out at 3 nM.
As for `C[C@H]1C[C@H](Cc2ccn3ncc(N4CCC(=O)NC4=O)c3c2)CCN1C(=O)NC1CCCC1`, the “% degradation of WIZ (100 − Amax)” value turned out to be 77%, the “WIZ Amax” value is reported as 23% and the half-maximal activity concentration (AC50) came to 10 nM.
